The source of these data is PubChem BioAssay AID2805 (Sanford-Burnham Center for Chemical Genomics, 2010).

The entries are a selection whose mix differs from that of the whole data set. Calls of active or inactive are those of the source.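 How the source made its calls: active means activation factor of at least 2 at 20 µM; inactive means the rest.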

The test has as its system intestinal alkaline phosphatase [Mus musculus]. The test is described as follows: mouse intestinal phosphatase enzyme activation – biochemical, luminescence, uHTS, primary screen (AID 2805). Conditions: muIAP, CDP-Star luminescence, 30 min; at 10 µM; active compounds read high; 1 = vehicle-only enzyme signal, 0 = enzyme-free wells. In outline:
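Assay system: mouse IAP enzyme; Reagent: CDP-Star chemiluminescent phosphatase substrate; Compound: DMSO-dissolved test compounds; Incubation: 30 min, room temperature; Technique: luminescence from enzymatic CDP-Star hydrolysis; Controls: DMSO-only wells and no-enzyme negative control.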
`Cc1cc(SC(NC(=O)c2ccccc2)C(Cl)(Cl)Cl)nc(C(C)C)n1` (centres undefined): the activation factor was inactive: 0.886.

As for `CCCCOc1ccc(C(=O)NCC2(N3CCCCC3)CCCCC2)cc1OC`, the activation factor is inactive: 1.25.

For `CCOC(=O)Nc1ccc([As](=O)(O)O)c(O)c1`, the activation factor was inactive: 0.803.

`O=P(Nc1ccccn1)(c1cccc2ccccc12)c1cccc2ccccc12`: the activation factor was inactive: 0.978.

On to `Cc1cc(SC(NC=O)C(Cl)(Cl)Cl)ncn1` (centres undefined), for which the activation factor was inactive: 1.07.

For the molecule `CCOC(=O)Nc1cccc([As](=O)(O)O)c1`, the activation factor was inactive: 0.898.

In the case of `O=C(Nc1ccncc1[N+](=O)[O-])c1ccc([N+](=O)[O-])cc1[N+](=O)[O-]`, the activation factor is inactive: 0.947.

For `O=C(COc1ccccc1)OC1CN2CCC1CC2` (centres undefined), the activation factor was inactive: 1.01.

As to `COP1(=S)c2c(C)nn(CCC#N)c2N=C(c2ccc(F)cc2)N1C` (centres undefined), the activation factor is inactive: 0.948.

Take `CCC(C)N(CC(C)C)C(=S)SC(NC(C)=O)C(Cl)(Cl)Cl` (centres undefined): the activation factor was inactive: 0.949.

For the molecule `CCOC(=O)c1ccc(NC(=O)C(C)(CCl)SC)cc1` (centres undefined), the activation factor is inactive: 1.1.

On to `O=C(OC1CN2CCC1CC2)c1cccc([N+](=O)[O-])c1` (centres undefined), for which the activation factor is inactive: 1.03.

Take `COc1cc(I)ccc1[As](=O)(O)O`: the activation factor is inactive: 0.96.

For `COc1ccc2nc(NP(=O)(c3ccccc3)c3ccccc3)sc2c1`, the activation factor was inactive: 0.925.

Turning to `Cc1cc(=O)[nH]c(N[N+](=O)[O-])n1`, the activation factor was inactive: 1.08.

Take `O=C(OC1CN2CCC1CC2)C12CC3CC(CC(C3)C1)C2` (centres undefined): the activation factor is inactive: 0.958.

Take `Cc1c2c(nc3ccccc13)SC(C(Cl)Cl)C2` (centres undefined): the activation factor was inactive: 0.96.

For `COc1ccc(N/C(=N/P(=O)(N2CCOCC2)N2CCOCC2)N2CCOCC2)cc1`, the activation factor is inactive: 0.911.

`Cc1ccc2nc3c(c(C)c2c1)CC(C(Cl)Cl)S3` (centres undefined): the activation factor was inactive: 0.948.

`Cc1ccc(OP(=O)(Nc2ccc([N+](=O)[O-])cn2)Oc2ccc(C)cc2)cc1`: the activation factor was inactive: 1.05.

Regarding `COc1cc(C(=O)NCC2(N3CCOCC3)CCCCC2)ccc1OCC(C)C`, the activation factor was inactive: 1.05.

Turning to `O=[As](O)(c1ccc(O)cc1)c1ccccc1O`, the activation factor was inactive: 1.02.

As for `C[As](=O)(O)c1cccc(C(=O)O)c1`, the activation factor was inactive: 0.978.

For the molecule `O=[N+]([O-])c1cc([N+](=O)[O-])c(-c2ccn[nH]2)s1`, the activation factor was inactive: 0.566.

In the case of `O=C(OC1CN2CCC1CC2)c1cccc2[nH]cnc12` (centres undefined), the activation factor is inactive: 1.

`CCN(CC)C(=S)SC(NC=O)C(Cl)(Cl)Cl` (centres undefined): the activation factor was inactive: 1.06.

For `CC(C)NC(=O)NP(=O)(Oc1ccccc1)Oc1ccccc1`, the activation factor is inactive: 1.

For `CC(C)c1ccc(OP(=O)(Nc2ccccn2)Oc2ccccc2F)cc1` (centres undefined), the activation factor was inactive: 0.985.

As to `ClCCSc1nnc(-c2cccnc2)o1`, the activation factor is inactive: 0.991.

Take `Nc1ccccc1[As](=O)(O)c1ccccc1`: the activation factor was inactive: 1.04.

Consider `O=C(O)COc1ccc([As](=O)(O)O)cc1[N+](=O)[O-]`, for which the activation factor is inactive: 1.06.

Consider `CS(=O)(=O)c1cc([N+](=O)[O-])c2no[n+]([O-])c2c1`, for which the activation factor was inactive: 0.93.

In the case of `O=P(Nc1nccs1)(c1ccccc1)c1nc2ccccc2s1` (centres undefined), the activation factor is inactive: 1.05.

With `O=P(Nc1nccs1)(Oc1ccccc1)Oc1ccccc1`, the activation factor was inactive: 1.02.

`CCOP1(=S)c2c(C)nn(CCC#N)c2N=C(c2ccccc2F)N1C` (centres undefined): the activation factor was inactive: 0.998.

Take `CN(C(=O)Cc1ccc(Cl)c(Cl)c1)[C@H]1CC[C@@]2(CCCO2)C[C@@H]1N1CCCC1`: the activation factor is inactive: 1.03.

Take `CN(C)C(=O)c1cc([N+](=O)[O-])cc2c1-c1c(cc([N+](=O)[O-])cc1[N+](=O)[O-])C2=O`: the activation factor was inactive: 1.05.

As to `O=[N+]([O-])c1ccc2c(c1)nnn2O`, the activation factor is inactive: 1.04.

Consider `CN(C(=O)Cc1ccccc1)[C@@H]1CC[C@]2(CCCO2)C[C@H]1N1CCCC1`, for which the activation factor is inactive: 0.96.

On to `CCOP1(=S)c2c(C)nn(CCC#N)c2N=C(c2ccc(F)cc2)N1C` (centres undefined), for which the activation factor was inactive: 0.886.

As to `N#CCCN(C(=O)COC(=O)C(O)(c1ccccc1)c1ccccc1)c1ccc(F)cc1`, the activation factor was inactive: 0.929.

As to `NC(=O)Nc1ccc([As](=O)(O)O)cc1`, the activation factor was inactive: 1.14.

`O=[As](O)(c1cccc(O)c1)c1cccc(O)c1`: the activation factor was inactive: 0.942.

Take `Cc1cccc(OCC(=O)OC2CN3CCC2CC3)c1` (centres undefined): the activation factor was inactive: 0.983.

`CS(=O)(=O)c1ccc(Cl)c(NC(=O)COC(=O)C(O)(c2ccccc2)c2ccccc2)c1`: the activation factor is inactive: 0.986.

As for `COc1cc(C(=O)NCC2(N3CCOCC3)CCCCC2)cc(Cl)c1OC(C)C`, the activation factor is inactive: 1.07.

For the molecule `O=[As](O)(O)c1cccnc1`, the activation factor is inactive: 0.967.

With `O=C(OC1CN2CCC1CC2)c1ccc(Cl)cc1` (centres undefined), the activation factor was inactive: 1.05.

`CCOP(=O)(Nc1cccc2ccccc12)OCC`: the activation factor was inactive: 0.962.

With `COc1cc(C2NCCC3(OCCO3)C2(C)C)cc(OC)c1OC` (centres undefined), the activation factor is inactive: 0.984.

Turning to `CCCOP(=S)(Nc1nc(N)cc(=O)[nH]1)OCCC`, the activation factor is inactive: 1.

Turning to `Cc1ccc(NCCc2c([N+](=O)[O-])cc([N+](=O)[O-])cc2[N+](=O)[O-])cc1`, the activation factor was inactive: 0.847.

As to `CC(C)(C)C(=O)NC(Sc1ncccn1)C(Cl)(Cl)Cl` (centres undefined), the activation factor was inactive: 1.

As to `Clc1n[nH]nc1-c1nn[nH][15n]1`, the activation factor was inactive: 0.995.

As for `CN(CCCl)Cc1cc(Cl)c(NC2=NCCN2)c(Cl)c1`, the activation factor is inactive: 0.977.

Regarding `CCOP(=O)(Nc1ccc(C)cn1)OCC`, the activation factor is inactive: 1.13.

With `CCOP(=O)(NC(=NC(C)c1ccccc1)NC(C)c1ccccc1)OCC` (centres undefined), the activation factor was inactive: 1.04.

Take `O=P1(Nc2ccccn2)COc2ccccc2OC1`: the activation factor is inactive: 1.04.

Consider `CCC1=CC2Cc3nc4ccc(Cl)cc4c(N)c3C(C1)C2` (centres undefined), for which the activation factor is inactive: 1.05.

For the molecule `CC1(CBr)Cn2c(nc3ccccc3c2=O)S1` (centres undefined), the activation factor was inactive: 1.06.

For the molecule `O=[As](O)(c1ccccc1Br)c1ccccc1Br`, the activation factor was inactive: 1.03.

As for `CC(C)/C=N\N=C(\N)N[N+](=O)[O-]`, the activation factor is inactive: 1.09.

As for `CN(C(=O)Cc1ccc(Cl)c(Cl)c1)[C@@H]1CCCC[C@H]1N1CCCC1`, the activation factor was inactive: 1.01.

Take `COc1ccccc1CNC(=O)COC(=O)C(O)(c1ccccc1)c1ccccc1`: the activation factor is inactive: 0.965.

For `O=C(/C=C/c1ccccc1)OC1CN2CCC1CC2` (centres undefined), the activation factor is inactive: 1.07.

Consider `CN(C)C1(CNC(=O)c2ccc(S(C)(=O)=O)cc2)CCCCC1`, for which the activation factor was inactive: 1.05.

With `CC1CCC(C(C)C)C(OP(=O)(Nc2ccccn2)c2ccccc2)C1` (centres undefined), the activation factor is inactive: 0.898.

As for `Cc1ccc(C(=O)OC2CN3CCC2CC3)cc1` (centres undefined), the activation factor was inactive: 0.975.

On to `Cc1nn(-c2ccccc2)c2c1P(=O)(N1CCOCC1)N(C)C(c1ccccc1)=N2` (centres undefined), for which the activation factor was inactive: 0.965.

For the molecule `O=P1(Nc2ccc(Br)cn2)COc2ccccc2OC1`, the activation factor was inactive: 0.958.

As to `NS(=O)(=O)c1cccc(NC(=O)COC(=O)C(O)(c2ccccc2)c2ccccc2)c1`, the activation factor is inactive: 0.801.

With `O=[As](O)(c1cccs1)c1cccs1`, the activation factor was inactive: 0.947.

Turning to `Cc1ccc(OCC(=O)OC2CN3CCC2CC3)cc1` (centres undefined), the activation factor is inactive: 0.929.

For the molecule `Nc1cccc([As](=O)(O)c2ccccc2)c1`, the activation factor was inactive: 1.03.

`O=P1(Nc2ncccn2)COc2ccccc2OC1`: the activation factor is inactive: 0.963.

Consider `C[C@H]1OP(=O)(Oc2ccccc2)[C@H](O)[C@H](O)[C@H]1N=[N+]=[N-]` (some centres undefined), for which the activation factor was inactive: 1.12.

For `O=P(Nc1nc2ccccc2s1)(c1ccccc1)c1ccccc1`, the activation factor was inactive: 0.982.

On to `O=P(Nc1ccccn1)(c1ccc(Br)cc1)c1ccc(Br)cc1`, for which the activation factor is inactive: 1.06.

For the molecule `CN(C)C1(CNC(=O)c2ccc(Cl)c(S(N)(=O)=O)c2)CCCCC1`, the activation factor was inactive: 1.05.

As to `Nc1ccc([As](=O)(O)c2ccc([N+](=O)[O-])cc2)cc1`, the activation factor was inactive: 0.912.

On to `C(Cc1nn[nH]n1)Cc1nn[nH]n1`, for which the activation factor was inactive: 0.888.

Consider `O=C(OC1CN2CCC1CC2)c1cccc(Cl)c1` (centres undefined), for which the activation factor was inactive: 1.04.

As to `O=[N+]([O-])c1ncn(CCn2cnc([N+](=O)[O-])n2)n1`, the activation factor is inactive: 0.997.

As to `O=[As](O)(c1ccccc1)c1ccc(O)cc1`, the activation factor was inactive: 1.09.

In the case of `c1nnnn1CCn1cnnn1`, the activation factor is inactive: 1.08.

As to `CC(C)C(=O)NC(Sc1ccccc1)C(Cl)(Cl)Cl` (centres undefined), the activation factor was inactive: 1.07.

With `O=P(Nc1nccs1)(c1ccccc1)c1ccccc1`, the activation factor was inactive: 0.952.

As for `CC(C)(C)C(=O)NC(Sc1ccccc1)C(Cl)(Cl)Cl` (centres undefined), the activation factor is inactive: 0.961.

As for `CCOc1ccc(C2=NCC(CBr)S2)cc1` (centres undefined), the activation factor is inactive: 0.891.

Take `O=P1(Nc2nc3ccc(Cl)cc3s2)COc2ccccc2O1` (centres undefined): the activation factor is inactive: 1.01.

Consider `CC(=O)Nc1ccc(Oc2c([N+](=O)[O-])cc([N+](=O)[O-])cc2[N+](=O)[O-])cc1`, for which the activation factor was inactive: 1.1.

Turning to `CC(=O)Nc1ccc([As](=O)(O)O)c(O)c1`, the activation factor is inactive: 0.912.

For the molecule `CC(=O)c1ccc(N2CC2c2ccncc2)cc1` (centres undefined), the activation factor was inactive: 0.958.

Consider `C[C@@H]1C=CCP(=O)(Oc2ccccc2)O1` (some centres undefined), for which the activation factor is inactive: 0.943.

`C[C@H]1OP(=O)(Oc2ccccc2)C[C@@H]2O[C@@H]21` (some centres undefined): the activation factor is inactive: 1.04.

`Cc1ccccc1CN(C)C(=O)COC(=O)C(O)(c1ccccc1)c1ccccc1`: the activation factor is inactive: 0.939.

For the molecule `CCNC(=S)/N=C(\N)N[N+](=O)[O-]`, the activation factor is inactive: 0.897.

In the case of `O=C(NC1CCS(=O)(=O)C1)NP(=S)(Oc1ccccc1)Oc1ccccc1` (centres undefined), the activation factor is inactive: 1.03.

As to `CCOC(=O)NC(Sc1ccccc1)C(Cl)(Cl)Cl` (centres undefined), the activation factor was inactive: 0.921.

As to `Cc1ccc(NP(=O)(Oc2cccc(C)c2)Oc2cccc(C)c2)nc1`, the activation factor was inactive: 1.13.

For the molecule `c1ccc(-c2nn[nH]n2)c(-c2nn[nH]n2)c1`, the activation factor is inactive: 0.947.

As for `CN(C)C(=O)Oc1noc2ccccc12`, the activation factor was inactive: 0.982.

Take `Cc1ccccc1OP(=O)(Nc1ccccn1)Oc1ccccc1C`: the activation factor is inactive: 1.

`CC(NC(=O)COC(=O)C(O)(c1ccccc1)c1ccccc1)c1ccccc1` (centres undefined): the activation factor was inactive: 1.08.
